Where two headings read alike, the source gives them in different places.
Target: T1, rat PPARγ (Rattus norvegicus, UniProt O88275)
T1 construct: expressed in transfected cells; host or cells: CV-1
Assay: GAL4-PPAR chimera transactivation assay in CV-1 cells at 10% or 0.1% serum (Example 4)
Type: cell-based
Conditions: read-out: GAL4-chimera (rat) EC50 (μM) hPPARγ

Amino acid sequences for entries named in this document (tags omitted). Residues count along the entry.
UniProt O88275, 238-503 limits assumed: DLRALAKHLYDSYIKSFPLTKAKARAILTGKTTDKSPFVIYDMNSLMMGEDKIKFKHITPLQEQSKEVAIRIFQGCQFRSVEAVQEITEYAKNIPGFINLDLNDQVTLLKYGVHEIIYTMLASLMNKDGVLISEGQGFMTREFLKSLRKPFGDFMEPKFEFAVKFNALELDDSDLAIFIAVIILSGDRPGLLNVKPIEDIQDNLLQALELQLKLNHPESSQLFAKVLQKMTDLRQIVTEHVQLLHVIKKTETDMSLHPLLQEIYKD

- EC50 (0.1% serum): > 10 µM
- EC50 (10% serum): > 10 µM
SMILES: Cc1cc(SCc2sc(-c3ccc(C(F)(F)F)cc3)nc2C)ccc1OCC(=O)O [GW-501516]
